Experimental findings from publication PMC9782539, “Synthesis, Characterization and Biological Evaluation of Benzothiazole–Isoquinoline Derivative” (Molecules, 2022) are described below.

By UniProt entry, the sequences of proteins in these tests, tags left out.
UniProt P21396, whole entry: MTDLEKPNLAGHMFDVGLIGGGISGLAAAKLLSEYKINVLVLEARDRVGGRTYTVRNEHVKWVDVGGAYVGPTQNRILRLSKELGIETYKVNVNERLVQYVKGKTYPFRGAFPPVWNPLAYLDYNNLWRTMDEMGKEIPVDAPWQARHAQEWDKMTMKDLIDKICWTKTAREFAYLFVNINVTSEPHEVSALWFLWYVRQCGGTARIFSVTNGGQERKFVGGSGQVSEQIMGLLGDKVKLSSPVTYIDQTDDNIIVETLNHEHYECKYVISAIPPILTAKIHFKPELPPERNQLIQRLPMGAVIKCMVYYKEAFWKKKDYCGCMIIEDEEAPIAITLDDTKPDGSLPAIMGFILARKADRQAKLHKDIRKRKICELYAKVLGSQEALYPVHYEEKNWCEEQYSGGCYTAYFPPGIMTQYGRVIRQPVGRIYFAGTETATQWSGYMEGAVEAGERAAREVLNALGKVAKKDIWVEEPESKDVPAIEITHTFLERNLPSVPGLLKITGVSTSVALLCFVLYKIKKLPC

The test addresses T1, MAO–A (Rattus norvegicus, UniProt P21396).
T1 construct: the obtained SD rat liver mitochondrial concentrate was the experimental monoamine oxidase stock solution; from tissue; host or cells: male SD rat liver mitochondria
The experiment in a line: MAO–A inhibitory activity (enzyme pre-incubated with pargyline). In kind it is biochemical. As to the method:
Male SD rats were sacrificed by decapitation, operated on ice, their livers were removed, and the liver surface was washed with precooled phosphate buffer. The liver was cut into pieces, and after washing (using PBS), 20 mL of 0.3 M sucrose buffer was added for homogenization. After fully homogenized, it was balanced by a tray balance. Low–temperature differential centrifugation was performed, and the obtained SD rat liver mitochondrial concentrate was the experimental monoamine oxidase stock solution, and was stored in a −80 °C refrigerator.
Added 25 µL of enzyme dilution solution and 25 µL of test derivatives (control group plus rasagiline, blank group plus 10% DMSO) to 96–well plate, incubated at 37 °C for 1 h, then 120 µL of substrate was added, 80 µL of chromogenic solution was added, incubated at 37 °C for 30 min, and its absorbance measured at 490 nm. In addition, in order to exclude the influence of protein, a protein control group was established, only the enzyme dilution was added, and the rest were replaced with PBS, and the absorbance value was detected at a wavelength of 490 nm. The inhibition rate of each concentration was substituted into the calculation software GraphPad Prism 8 to calculate the IC50 value.
The inhibition rate of each concentration was substituted into the calculation software GraphPad Prism 8 to calculate the IC50 value.

On to `C#CCN(C)CCCOc1ccc(Cl)cc1Cl` [Clorgyline, reference compound], for which the “Inhibition Rate (%) MAO–A” value is 84.21%.
